Data taken from PMC9599461, “Stereoselectivity in the Membrane Transport of Phenylethylamine Derivatives by Human Monoamine Transporters and Organic Cation Transporters 1, 2, and 3” (Biomolecules, 2022).

Chains of the proteins cited; added tags and fusions are not shown.
UniProt P23975, whole entry: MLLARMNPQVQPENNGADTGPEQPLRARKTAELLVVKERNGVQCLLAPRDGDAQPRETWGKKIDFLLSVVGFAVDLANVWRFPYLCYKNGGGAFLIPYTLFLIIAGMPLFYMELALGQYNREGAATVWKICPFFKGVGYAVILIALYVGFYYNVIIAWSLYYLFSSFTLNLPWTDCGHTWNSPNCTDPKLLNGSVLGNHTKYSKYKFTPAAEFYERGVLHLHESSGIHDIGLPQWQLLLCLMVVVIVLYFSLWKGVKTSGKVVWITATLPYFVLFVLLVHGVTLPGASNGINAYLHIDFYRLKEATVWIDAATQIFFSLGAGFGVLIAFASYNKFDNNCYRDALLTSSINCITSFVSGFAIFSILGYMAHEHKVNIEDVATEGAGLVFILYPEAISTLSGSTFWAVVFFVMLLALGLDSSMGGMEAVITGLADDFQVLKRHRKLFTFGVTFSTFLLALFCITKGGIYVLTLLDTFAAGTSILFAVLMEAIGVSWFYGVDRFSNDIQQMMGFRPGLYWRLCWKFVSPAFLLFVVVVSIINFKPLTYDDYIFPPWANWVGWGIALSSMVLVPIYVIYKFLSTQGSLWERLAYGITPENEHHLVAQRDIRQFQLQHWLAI
UniProt Q01959, whole entry: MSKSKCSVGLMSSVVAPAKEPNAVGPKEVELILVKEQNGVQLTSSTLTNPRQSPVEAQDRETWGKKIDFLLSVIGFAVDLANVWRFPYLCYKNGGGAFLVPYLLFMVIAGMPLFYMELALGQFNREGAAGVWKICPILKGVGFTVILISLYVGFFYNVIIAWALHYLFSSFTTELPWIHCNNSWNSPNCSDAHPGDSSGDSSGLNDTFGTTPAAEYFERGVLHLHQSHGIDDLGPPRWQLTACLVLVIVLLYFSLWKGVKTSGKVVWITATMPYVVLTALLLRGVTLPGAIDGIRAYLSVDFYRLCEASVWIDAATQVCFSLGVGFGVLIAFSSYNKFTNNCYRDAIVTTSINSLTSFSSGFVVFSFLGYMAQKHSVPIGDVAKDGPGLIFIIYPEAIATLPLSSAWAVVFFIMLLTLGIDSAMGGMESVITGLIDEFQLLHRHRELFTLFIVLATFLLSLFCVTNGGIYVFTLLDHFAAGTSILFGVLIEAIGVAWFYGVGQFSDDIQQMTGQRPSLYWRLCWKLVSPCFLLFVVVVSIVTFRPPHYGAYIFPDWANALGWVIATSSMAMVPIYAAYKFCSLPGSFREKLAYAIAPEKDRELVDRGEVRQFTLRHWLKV

Columns and labels:
NET = NET (Homo sapiens, UniProt P23975); assay: Stereoselective uptake into NET-overexpressing HEK293 cells; conditions: ratio between enantiomers, given as for (R) or for 1;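 further: intracellular enantiomers quantified in cell lysates by chiral HPLC-MS/MS after a 2 min substrate incubation, with uptake normalized to total cellular protein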
OCT3 = target: T1, OCT3 (Homo sapiens, UniProt O75751); assay: Stereoselective uptake into OCT3-overexpressing HEK293 cells; conditions: ratio between enantiomers, given as for (S) or for 2;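 further: intracellular accumulation in HEK293 cells measured by chiral HPLC-MS/MS after a 2 min substrate exposure at 37 °C, uptake normalized to total protein (bicinchoninic acid assay)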
T1 sequence (O75751 1-556): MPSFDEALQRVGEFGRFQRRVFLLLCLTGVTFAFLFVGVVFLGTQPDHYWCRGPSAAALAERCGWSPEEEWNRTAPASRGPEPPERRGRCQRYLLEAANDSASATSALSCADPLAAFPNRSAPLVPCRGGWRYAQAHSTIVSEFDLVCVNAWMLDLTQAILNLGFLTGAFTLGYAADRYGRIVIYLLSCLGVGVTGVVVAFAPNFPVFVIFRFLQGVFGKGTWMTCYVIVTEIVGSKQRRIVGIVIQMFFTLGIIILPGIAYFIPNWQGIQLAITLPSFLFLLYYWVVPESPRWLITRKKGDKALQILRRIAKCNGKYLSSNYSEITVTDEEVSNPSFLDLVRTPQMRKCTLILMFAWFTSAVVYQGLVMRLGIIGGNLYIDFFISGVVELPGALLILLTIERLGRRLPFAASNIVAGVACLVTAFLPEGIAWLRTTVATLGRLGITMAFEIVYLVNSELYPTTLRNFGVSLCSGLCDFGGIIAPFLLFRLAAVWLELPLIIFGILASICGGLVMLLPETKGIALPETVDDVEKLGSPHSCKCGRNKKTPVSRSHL

OCT1 = target: T2, OCT1 (Homo sapiens, UniProt O15245); assay: Stereoselective uptake into OCT1-overexpressing HEK293 cells; conditions: ratio between enantiomers;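 further: enantiomers quantified inside cells by chiral HPLC-MS/MS, uptake normalized to total protein from bicinchoninic acid assay, substrates applied in HBSS+ buffer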
T2 sequence (O15245 1-554): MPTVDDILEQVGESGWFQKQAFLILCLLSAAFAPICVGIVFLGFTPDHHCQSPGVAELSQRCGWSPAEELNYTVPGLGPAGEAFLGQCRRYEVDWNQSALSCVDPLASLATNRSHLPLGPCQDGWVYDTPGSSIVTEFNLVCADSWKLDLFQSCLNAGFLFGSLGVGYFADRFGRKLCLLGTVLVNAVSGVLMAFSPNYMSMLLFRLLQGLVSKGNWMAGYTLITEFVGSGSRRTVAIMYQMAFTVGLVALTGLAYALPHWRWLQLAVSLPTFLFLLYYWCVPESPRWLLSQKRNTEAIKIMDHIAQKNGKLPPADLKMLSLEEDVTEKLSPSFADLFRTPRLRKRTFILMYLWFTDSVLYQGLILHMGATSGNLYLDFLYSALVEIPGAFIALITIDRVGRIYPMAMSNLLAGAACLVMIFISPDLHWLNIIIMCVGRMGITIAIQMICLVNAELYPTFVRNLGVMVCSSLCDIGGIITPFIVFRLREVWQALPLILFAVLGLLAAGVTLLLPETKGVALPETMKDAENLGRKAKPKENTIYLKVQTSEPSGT

OCT2 = target: T3, OCT2 (Homo sapiens, UniProt O15244, S270A); assay: Stereoselective uptake into OCT2 (wild-type)-overexpressing HEK293 cells; conditions: ratio between enantiomers
T3 sequence (O15244 1-555 S270A): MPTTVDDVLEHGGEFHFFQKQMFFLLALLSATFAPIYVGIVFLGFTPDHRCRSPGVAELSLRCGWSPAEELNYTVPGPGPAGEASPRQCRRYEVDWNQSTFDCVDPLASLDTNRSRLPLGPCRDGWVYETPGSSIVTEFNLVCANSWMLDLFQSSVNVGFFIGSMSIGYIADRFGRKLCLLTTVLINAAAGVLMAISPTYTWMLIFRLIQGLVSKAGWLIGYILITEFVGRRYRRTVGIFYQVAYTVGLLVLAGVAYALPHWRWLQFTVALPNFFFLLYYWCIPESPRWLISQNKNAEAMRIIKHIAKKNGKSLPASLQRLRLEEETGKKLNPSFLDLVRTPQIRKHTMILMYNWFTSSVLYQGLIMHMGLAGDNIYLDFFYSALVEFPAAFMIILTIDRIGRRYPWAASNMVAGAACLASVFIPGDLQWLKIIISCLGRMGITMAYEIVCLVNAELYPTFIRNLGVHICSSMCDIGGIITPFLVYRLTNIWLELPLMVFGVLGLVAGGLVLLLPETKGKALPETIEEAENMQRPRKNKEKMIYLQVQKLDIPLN

DAT = DAT (Homo sapiens, UniProt Q01959); assay: Stereoselective uptake into DAT-overexpressing HEK293 cells; conditions: ratio between enantiomers, printed as for (R) or for 1 (also 1.00-fold for (R/S));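 further: intracellular accumulation measured by chiral HPLC-MS/MS in stably transfected HEK293 cells, normalized to total protein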
OCT2 A270S variant = assay: Stereoselective uptake into OCT2 A270S variant-overexpressing HEK293 cells; conditions: OCT2 wild-type versus A270S, 100 μM racemic substance, two minutes; given as for WT;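 further: uptake into HEK293 cells stably overexpressing human OCT2 variants, intracellular enantiomers quantified by chiral HPLC-MS/MS and normalized to total protein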
[1] = given as for (S) or for 2 (second-eluting)

Substance: (R)-Epinephrine
- Stereoselectivity ClInt (NET): 1.41-fold for (R)
- Stereoselectivity ClInt (OCT3): 1.78-fold for (S)
- Stereoselectivity ClInt (OCT1; given as for (R) or for 1 (also 1.00-fold for 1/2)): 1.08-fold for (R)
- Stereoselectivity Vmax (OCT1; given as for (S) or for 2): 1.04-fold for (S)
- Stereoselectivity Km (OCT1; [1]): 1.13-fold for (S)
- Stereoselectivity ClInt (OCT2; given as for (R) or for 1): 2.08-fold for (R)
- Stereoselectivity Vmax (OCT2; given as for (R) or for 1): 1.82-fold for (R) **
- Stereoselectivity Km (OCT2; [1]): 1.14-fold for (S)
- Stereoselectivity ClInt (DAT): 1.71-fold for (R)
- Transporter selectivity (OCT2 A270S variant): 1.19 fold

Marks after values point to notes of the source that are not given here.
